## Apparent affinities of Ab-14 variants for a coronavirus HR2 peptide

Source: Li et al. 2023 (doi:10.1038/s41467-023-39022-2), MIT Lincoln Laboratory and A-Alpha Bio; data file from the FLAb repository.

Target: peptide PDVDLGDISGINAS, taken from heptad repeat 2 (HR2) of SARS-CoV-2 spike.

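Phage display of a naive human antibody library on the peptide gave the parent. These sequences belong to a second round, designed from the earlier measurements on random variants of the parent. Group labels follow the data file (Ctrl: baseline library sampled from a position-specific scoring matrix, with some repeated check sequences; En: ensemble of fine-tuned language models; GP: Gaussian process model; HC: hill climbing; Gen: genetic algorithm; Gibbs: Gibbs sampling; a sequence that several methods proposed may carry one label only). Affinity was read by AlphaSeq, a pooled yeast mating assay with surface-displayed partners. Mating (16 h, 30 °C) was followed by selection of diploids and sequencing of their barcodes. Read counts were normalised to the haploid input and turned into Kd by a linear fit to BCL2-family pairs of known affinity, for each replicate. Each pool was mated in six replicate cultures.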

Ab-14 is the parent antibody, in scFv form: VH, then three GGGGS repeats, then VL. The heavy chain is unchanged in all variants.
VH: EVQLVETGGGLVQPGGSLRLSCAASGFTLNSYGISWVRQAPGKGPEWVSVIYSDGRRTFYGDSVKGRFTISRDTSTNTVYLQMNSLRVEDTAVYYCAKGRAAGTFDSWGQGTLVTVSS
VL: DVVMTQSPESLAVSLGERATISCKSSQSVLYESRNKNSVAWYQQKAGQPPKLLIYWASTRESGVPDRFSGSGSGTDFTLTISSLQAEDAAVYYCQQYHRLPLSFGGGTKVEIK

The parent's light chain CDRs are KSSQSVLYESRNKNSVA, WASTRES, QQYHRLPLS; each variant's own CDRs replace them letter for letter. Kd is apparent (estimated from mating counts) and averaged on the log scale over replicates with a signal. Smaller is tighter. A pair that was not seen in any replicate is written "nd"; this usually means weak binding, but a binder can also be missed. As a blank, each scFv also met three strains without target: over all light chain designs, 4% of these pairings were detected, typically at 430 nM and seldom below 38 nM.

CDR-L1 | CDR-L2 | CDR-L3 | group | Kd | replicates with signal
KLSQSVLYESRVKNNVA | NASTRES | QQYHRLPLS | GP_Gen | 630 pM | 6/6
KSSQSWLEESRNKNSVA | WAYTREQ | QQYHRLPLS | Ctrl | 49 nM | 6/6
KSSQGVLYESRNKNSVA | WASTRES | QQYHRLPLS | Ctrl | 74 nM | 5/6
KLEQSQLYESRMKNSVA | NASTRES | QQYHRLPLS | GP_Gen | 1.3 nM | 6/6
DSSQSVLYEGRNLNSVA | WASTRES | QQYHRLPLS | Ctrl | 43 nM | 2/6
NISHFMDTTAKHNNNVA | EMEMREE | QQYHHLPLS | En_Gen | 1.6 nM | 6/6
HSSPSVLYESRNKNSVA | NASTRES | QQYHRLPLF | GP_HC | 800 pM | 6/6
KVDQSVLYESRNKNSVA | DASTRES | QQYHRLPLS | GP_Gen | 3.2 nM | 6/6
KSSQSWLGMDGNKNSVA | QASQRES | QQYHRLPLS | GP_Gibbs | 1.7 nM | 6/6
ALSQSMDMTSRNTNSVA | DLTTREN | QQYHRLPLS | En_HC | 1.3 nM | 6/6
KSSQSVLYESRNKGSVA | WASTRES | QQYHALPLS | Ctrl | nd | 0/6
MISMMHASQYNESSSIA | NAEATNS | QQYHELPLS | En_Gibbs | 60 nM | 1/6
KLSQSVLMGDRNKSSVA | QASTREM | QQYHRLPLS | GP_Gibbs | 4.3 nM | 6/6
KISQMVRVGSTISNSIA | EEVTRAK | QQYHRLPLS | En_Gen | 5.8 nM | 6/6
MFSYNLHDMGRNKNSVA | EMNKVTT | QDYHRLPLA | En_Gibbs | 13 nM | 6/6
TLYGLSMSMSKNKNNVA | EMTTREK | QQYDRLPLV | En_Gen | 3.5 nM | 6/6
IIDQLMFHGNKKANSIA | QASMRFN | QQYHHLPLA | En_Gen | 280 nM | 2/6
KSSASVEYEDRNKNSVA | HASTREQ | QQYHRLPLM | GP_Gibbs | 8.1 nM | 6/6
KSSQSVLYESRDKNSVA | QASTRES | QQYHRLPLS | Ctrl | 3.7 nM | 6/6
MMKQSIEGNPLNTNNIA | DADSVTS | QQYARLPLF | En_Gibbs | 1.4 nM | 6/6
KWSQSVLYESGNKNSVA | WASTRES | QQYHRLPLS | Ctrl | 30 nM | 6/6
KVQQSNLYESRNKNSVA | NASTRES | QQYHRLPLS | GP_Gen | 990 pM | 6/6
KLNHLSFVHDREKNNVA | DLNVKCS | QQYDRLPLV | En_Gibbs | 1.9 nM | 6/6
ISSRSVLYEKRNKNSVA | WASTRES | QQYHRLPLS | Ctrl | nd | 0/6
KLRQVTEYESFHKNSVA | QTSTRES | QDYDRLPLS | En_HC | 89 nM | 6/6
KISMLQRYESQNKNNIA | EMSRREN | QQYHRLPLS | En_HC | 1.3 nM | 6/6
KLSQSDNYESRNHNSVA | HASTRSS | QQYHRLPLS | GP_Gibbs | 2.3 nM | 6/6
KSQQSQEYESRNKNSVA | HASTRLD | QQYHRLPLS | GP_HC | 2.8 nM | 6/6
KMSQSQPYESRMSNAVA | NASYRMS | QQYHRLPLS | GP_Gibbs | 2.1 nM | 6/6
KVSQSVLYEWRSKNSVA | WASTRES | QQYHRLPLS | Ctrl | nd | 0/6
KLSQSQLYESRNKNNVA | SASTREM | QQYHRLPLS | GP_Gibbs | 750 pM | 6/6

The remaining entries, values ahead:

Kd | replicates with signal | CDR-L1 | CDR-L2 | CDR-L3 | group
3.4 nM | 6/6 | MMSQMFEGLSTSKNPVA | QVSQREE | QQYHRLPLS | En_HC
15 nM | 5/6 | HLGMATMLEETKRNSVA | NNSTREQ | QQYDRLPLS | En_Gen
990 pM | 6/6 | KMFQSEGMEERNVNSVA | HASQRLD | QQYHRLPLS | GP_Gibbs
nd | 0/6 | MIAMEIGIEDSKWSAVA | SNSVRMS | QQYGRLPFS | En_Gibbs
1.1 nM | 6/6 | KMEQGVLYESRNKNSVA | GASLRES | QQYHRLPLS | GP_HC
400 pM | 6/6 | KLPQSVLYESRNKNAVA | GASTRES | QQYHRLPLS | GP_Gen
1.8 nM | 6/6 | KSSQNVLYTSTNKNSVA | DASVRES | QQYHRLPLS | Ctrl
780 pM | 6/6 | KMSQSVWYESRNKNSVA | DASTRES | QQYHRLPLS | GP_Gen
2.2 nM | 6/6 | KFQNGLERGNQGYSAIA | DVTEKGA | QQYLQLPLM | En_Gibbs
2.8 nM | 6/6 | TISMHTSLFSQTINNVA | EVSTRES | QQYDRLPLM | En_Gen
nd | 0/6 | IVSQLMMWGMHAKNSIA | EAVTRYN | QQYDRLPLF | En_Gen
57 nM | 3/6 | MLLQATMYGERNRNSVA | HAMTRED | QQYHRLPLI | En_HC
56 nM | 6/6 | KSSISYLYESPNKNSVA | QASTRES | QQYHRLPLS | GP_HC
nd | 0/6 | VFSGLFQGDEQSYNSIA | EASLSNT | QQYISLPLS | En_Gibbs
1.8 nM | 6/6 | KMEQSQLYESRNKNSVA | NASTRES | QQYHRLPLS | GP_Gen
2.4 nM | 6/6 | KLSQSGLYESRNKNSVA | HASTRES | QQYHRLPLS | GP_Gen
31 nM | 6/6 | MISQLYNMGSFAINSVA | QASQRNA | QQYDRLPLI | En_Gen
8.5 nM | 6/6 | NLMSHQGRYDVWKYSIA | EASIRLS | QQYFRLPLA | En_Gibbs
5.8 nM | 6/6 | NIRGVEFESAMMGNSVA | GVDLVEA | QQYFRLPLH | En_Gibbs
2.9 nM | 6/6 | KSSQSVDFESRNKNSVA | EASTRES | QQYHRLPLS | GP_HC
nd | 0/6 | KQSQEKGYESRNKNSVA | DASTRES | QQYHRLPLS | GP_HC
9.7 nM | 6/6 | KIGGVTNGISRSKNSVA | EQSTRED | QQYNRLPLI | En_HC
nd | 0/6 | KLGQMTAIESRNLNSVA | QMDTREQ | QQYHRLPLS | En_HC
960 pM | 6/6 | KLRQGVLYQSRNKNSVA | GASTRES | QQYHRLPLS | GP_HC
1.6 nM | 6/6 | KSSISYLYESRNENSVA | EASTREV | QQYHRLPLS | GP_HC
nd | 0/6 | SMAYFQGGYNQQEKAIA | EAATRTQ | QQYFRLPLT | En_Gibbs
1.2 nM | 6/6 | KASQSVLFQSRNKNSVA | DASTRES | QQYHRLPLS | GP_HC
7.8 nM | 6/6 | MLSQMWAIGQKVSNSVA | QASQRFN | QQYDRLPLE | En_Gen
18 nM | 6/6 | NMGGTKEEQSNEINNIA | EMNERFA | QQYFQLPLS | En_Gibbs
13 nM | 6/6 | KLSATYRYESNNKNNIA | EMTTRES | QCYHRLPLS | En_HC
3.4 nM | 6/6 | KSSISYLEESRYKNSVA | EASTRES | QQYHRLPLS | GP_HC
2.9 nM | 6/6 | KSSTSYLYESMNKNSVA | EASTRES | QQYHRLPLS | GP_HC

The opening 7 entries, copied out:

{"CDR-L1": "KLSQSVLYESRVKNNVA", "CDR-L2": "NASTRES", "CDR-L3": "QQYHRLPLS", "group": "GP_Gen", "Kd": "630 pM", "replicates with signal": "6/6"}
{"CDR-L1": "KSSQSWLEESRNKNSVA", "CDR-L2": "WAYTREQ", "CDR-L3": "QQYHRLPLS", "group": "Ctrl", "Kd": "49 nM", "replicates with signal": "6/6"}
{"CDR-L1": "KSSQGVLYESRNKNSVA", "CDR-L2": "WASTRES", "CDR-L3": "QQYHRLPLS", "group": "Ctrl", "Kd": "74 nM", "replicates with signal": "5/6"}
{"CDR-L1": "KLEQSQLYESRMKNSVA", "CDR-L2": "NASTRES", "CDR-L3": "QQYHRLPLS", "group": "GP_Gen", "Kd": "1.3 nM", "replicates with signal": "6/6"}
{"CDR-L1": "DSSQSVLYEGRNLNSVA", "CDR-L2": "WASTRES", "CDR-L3": "QQYHRLPLS", "group": "Ctrl", "Kd": "43 nM", "replicates with signal": "2/6"}
{"CDR-L1": "NISHFMDTTAKHNNNVA", "CDR-L2": "EMEMREE", "CDR-L3": "QQYHHLPLS", "group": "En_Gen", "Kd": "1.6 nM", "replicates with signal": "6/6"}
{"CDR-L1": "HSSPSVLYESRNKNSVA", "CDR-L2": "NASTRES", "CDR-L3": "QQYHRLPLF", "group": "GP_HC", "Kd": "800 pM", "replicates with signal": "6/6"}

Of ten entries with the parent sequence, four were seen in most replicates (averages 2.2 nM to 240 nM), three in one and three in none, so single entries are noisy. A sequence measured in both rounds can read differently, since the two assays cover different ranges. The authors averaged sequences with at least three values out of six and counted those with two or fewer as poor binders.